# Assay results reported in US20080249178A1, “MAGNESIUM COMPOSITIONS AND USES THEREOF FOR INCREASING LIFESPAN” (priority 2007, published 2008).
# Experiment: Magnesium absorption rate in rats (metabolic cages, urine and feces magnesium by ICP-AES)
# Settings: higher dosage compositions; magnesium chloride in water, magnesium gluconate in skim milk or water comprising 5 weight percent lactose
# Protocol: Fifty 3-month old, male Sprague Dawley (SD) rats were divided into five groups of ten rats. Rats of this age and older are considered adult. Each of the rats was placed in a separate metabolic cage equipped with urine- and feces-collecting wells. All of the rats were maintained in a temperature-controlled room (22° C. to 25° C.) with a dark period from 08:00 pm to 08:00 am daily. From day 1 through day 3, each rat was fed daily 15 g of magnesium-free food and de-ionized water. […] The medium was skim milk for Composition 1 and Group 1, milk prepared from powdered milk, by diluting the powdered milk with water to obtain a composition like that of skim milk, for Composition 2 and Group 2, 1% milk cream in water for Composition 3 and Group 3, water comprising 5 weight percent lactose for Composition 4 and Group 4, and water for the Control Composition and Control Group. […]
# From day 4 through day 10, urine from each rat was collected daily. The collected urine from each rat was then pooled together and the total volume of the pooled urine from each rat was recorded. The pooled urine from each rat, in an amount of […], was analyzed for magnesium content using an inductively coupled plasma-atomic emission spectrometer (ICP-AES). […] The pooled feces from each rat, in an amount of 0.5 g, were analyzed for magnesium content using an ICP-AES. […]
substance,measurement,value
magnesium gluconate,magnesium absorption rate at relatively high magnesium dosage,suitably close to those associated with the lower dosage compositions
